Drawing on PubChem BioAssay AID602162 (NMMLSC, 2011), this text covers fluorescence ratio to DMSO for 43 compounds.

The chains behind the UniProt entries cited, without tags or fusion partners. Where a name states a change or a piece, a line headed by the entry shows the natural chain unless it says otherwise.
UniProt Q9NP58: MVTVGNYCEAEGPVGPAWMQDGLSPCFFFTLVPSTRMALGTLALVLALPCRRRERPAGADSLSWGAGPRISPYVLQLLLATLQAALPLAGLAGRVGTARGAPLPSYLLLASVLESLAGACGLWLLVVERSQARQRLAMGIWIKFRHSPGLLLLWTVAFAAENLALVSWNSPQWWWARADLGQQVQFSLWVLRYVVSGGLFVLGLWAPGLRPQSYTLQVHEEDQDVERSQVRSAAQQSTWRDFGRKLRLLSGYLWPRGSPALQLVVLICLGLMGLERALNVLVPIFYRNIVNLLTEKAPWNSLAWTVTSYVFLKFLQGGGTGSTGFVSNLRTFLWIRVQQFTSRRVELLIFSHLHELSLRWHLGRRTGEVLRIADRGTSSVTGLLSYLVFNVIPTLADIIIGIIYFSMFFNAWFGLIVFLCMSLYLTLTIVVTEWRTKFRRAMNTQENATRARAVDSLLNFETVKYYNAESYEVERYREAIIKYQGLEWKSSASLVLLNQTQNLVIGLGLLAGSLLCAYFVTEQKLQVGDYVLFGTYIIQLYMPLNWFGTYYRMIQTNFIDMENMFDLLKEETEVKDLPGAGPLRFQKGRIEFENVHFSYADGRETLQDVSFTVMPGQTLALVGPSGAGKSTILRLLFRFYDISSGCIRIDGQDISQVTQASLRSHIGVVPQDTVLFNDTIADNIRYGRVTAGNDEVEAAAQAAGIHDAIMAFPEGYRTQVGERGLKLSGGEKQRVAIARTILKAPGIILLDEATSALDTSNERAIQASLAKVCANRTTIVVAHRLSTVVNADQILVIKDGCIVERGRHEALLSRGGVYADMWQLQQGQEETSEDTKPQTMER

Molecules are shown by their SMILES. The list shows a part of the results, in another mix than the full data. Calls of active or inactive are those of the source.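 The calls were made as follows: active = fluorescence ratio to DMSO below 75%, the collection mean minus 3 SD; inconclusive = too few cells collected in the well; inactive = the rest.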

The assay deals with ATP-binding cassette sub-family B member 6 (Homo sapiens) (UniProt Q9NP58). Kind of assay: blockers of ABCB6-driven porphyrin uptake – K562-ABCB6 cells, flow cytometry, MLPCN library, primary screen (AID 602162).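 Also: signal is porphyrin accumulated inside mitochondria; 100% equals median channel fluorescence of DMSO control wells; lower ratio means ABCB6 inhibition with less porphyrin fluorescence.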 The note with it: K562-ABCB6 porphyrin accumulation, 1 h, at 10 µM, hits give low values.
Take `O=C(O)CNc1ccc([As](=O)(O)O)cc1`: the fluorescence ratio to DMSO is inactive: 95%. For `COc1ccc(N)c([N+](=O)[O-])c1[N+](=O)[O-]` the value was inactive: 91%; for `Nc1ccc(CCCCOc2ccccc2)cc1`, inactive: 101%. Regarding `CN(C)C1(CNC(=O)c2ccc(Cl)c(S(N)(=O)=O)c2)CCCCC1`, the fluorescence ratio to DMSO is inactive: 100%. Consider `O=P(Nc1ccccn1)(c1ccc(Br)cc1)c1ccc(Br)cc1`, for which the fluorescence ratio to DMSO is inactive: 94%.

`C[C@H]1OP(=O)(Oc2ccccc2)[C@H](O)[C@H](O)[C@H]1N=[N+]=[N-]` (stereo partly drawn): the fluorescence ratio to DMSO was inactive: 99%. Take `O=P(Nc1nc2ccccc2s1)(c1ccccc1)c1ccccc1`: the fluorescence ratio to DMSO was inactive: 95%. For `O=[N+]([O-])c1ncn(CCn2cnc([N+](=O)[O-])n2)n1` the value was inactive: 95%; for `CC(=O)NC(SC(=S)N(C)C)C(Cl)(Cl)Cl` (stereo not drawn), inactive: 102%. Take `O=[N+]([O-])c1ccc(O)c(/C=N/Nc2ccc([N+](=O)[O-])cc2[N+](=O)[O-])c1`: the fluorescence ratio to DMSO was inactive: 92%. With `O=[As](O)(c1ccccc1)c1ccc(O)cc1`, the fluorescence ratio to DMSO is inactive: 96%.

As to `C(Cc1nn[nH]n1)Cc1nn[nH]n1`, the fluorescence ratio to DMSO is inactive: 96%. In the case of `Nc1ccc([As](=O)(O)c2ccc([N+](=O)[O-])cc2)cc1`, the fluorescence ratio to DMSO is inactive: 102%. In the case of `O=C(OC1CN2CCC1CC2)c1cccc(Cl)c1` (stereo not drawn), the fluorescence ratio to DMSO was inactive: 93%. With `O=P(Nc1nccs1)(c1ccccc1)c1ccccc1`, the fluorescence ratio to DMSO was inactive: 106%.

As for `CC(C)C(=O)NC(Sc1ccccc1)C(Cl)(Cl)Cl` (stereo not drawn), the fluorescence ratio to DMSO was inactive: 98%. For `c1nnnn1CCn1cnnn1`, the fluorescence ratio to DMSO is inactive: 89%. With `CCOc1ccc(C2=NCC(CBr)S2)cc1` (stereo not drawn) the figure was inactive: 92%; with `O=P1(Nc2nc3ccc(Cl)cc3s2)COc2ccccc2O1` (stereo not drawn), inactive: 92%; with `CCc1cc(O)c([N+](=O)[O-])c(C)c1[N+](=O)[O-]`, inactive: 99%. Regarding `CC(C)(C)C(=O)NC(Sc1ccccc1)C(Cl)(Cl)Cl` (stereo not drawn), the fluorescence ratio to DMSO was inactive: 102%.

On to `COC(=O)C1(C)COP(=O)(NCc2ccccc2)OC1` (stereo not drawn), for which the fluorescence ratio to DMSO was inactive: 94%. As for `CC(=O)c1ccc(N2CC2c2ccncc2)cc1` (stereo not drawn), the fluorescence ratio to DMSO is inactive: 95%. Regarding `N#C/C(=C\c1ccc(N(CCBr)CCBr)cc1)C(N)=O`, the fluorescence ratio to DMSO is inactive: 100%. Consider `C[C@H]1OP(=O)(Oc2ccccc2)C[C@@H]2O[C@@H]21` (stereo partly drawn), for which the fluorescence ratio to DMSO was inactive: 97%. In the case of `C[C@@H]1C=CCP(=O)(Oc2ccccc2)O1` (stereo partly drawn), the fluorescence ratio to DMSO was inactive: 100%. As to `Cc1ccccc1CN(C)C(=O)COC(=O)C(O)(c1ccccc1)c1ccccc1`, the fluorescence ratio to DMSO was inactive: 94%. Turning to `CC(=O)Nc1ccc(Oc2c([N+](=O)[O-])cc([N+](=O)[O-])cc2[N+](=O)[O-])cc1`, the fluorescence ratio to DMSO was inactive: 99%. In the case of `CC(=O)Nc1ccc([As](=O)(O)O)c(O)c1`, the fluorescence ratio to DMSO is inactive: 97%. For `O=C(NC1CCS(=O)(=O)C1)NP(=S)(Oc1ccccc1)Oc1ccccc1` (stereo not drawn), the fluorescence ratio to DMSO is inactive: 98%. For `CCNC(=S)/N=C(\N)N[N+](=O)[O-]`, the fluorescence ratio to DMSO is inactive: 96%. Regarding `Cc1ccc(NP(=O)(Oc2cccc(C)c2)Oc2cccc(C)c2)nc1`, the fluorescence ratio to DMSO is inactive: 90%. With `c1ccc(-c2nn[nH]n2)c(-c2nn[nH]n2)c1`, the fluorescence ratio to DMSO is inactive: 103%. As for `O=P1(N(CCCl)CCCl)OCCC2CCCCN21` (stereo not drawn), the fluorescence ratio to DMSO was inactive: 101%. With `Cc1ccc(OP(=O)(Nc2ccccn2)Oc2ccc(C)cc2)cc1`, the fluorescence ratio to DMSO was inactive: 95%. On to `CC(=O)NC(SC(=S)N(CC(C)C)CC(C)C)C(Cl)(Cl)Cl` (stereo not drawn), for which the fluorescence ratio to DMSO was inactive: 97%. As to `COC(=O)c1cc2c(s1)N=C(c1ccccc1)N(C)P2(=O)N1CCOCC1` (stereo not drawn), the fluorescence ratio to DMSO was inactive: 100%. As for `CCC(=O)N1C2C3N(C(=O)CC)C1C1N(C(=O)CC)C(C(N1C(=O)CC)N3C(=O)CC)N2C(=O)CC`, the fluorescence ratio to DMSO is inactive: 101%. Regarding `O=C(OC1CN2CCC1CC2)c1ccccc1` (stereo not drawn), the fluorescence ratio to DMSO was inactive: 99%.

As to `O=c1c2cc([N+](=O)[O-])ccc2[nH]c2c([N+](=O)[O-])cc([N+](=O)[O-])cc12`, the fluorescence ratio to DMSO was inactive: 98%.

In the case of `CN(C)C(=O)Oc1noc2ccccc12`, the fluorescence ratio to DMSO is inactive: 101%.

With `CC(NC(=O)COC(=O)C(O)(c1ccccc1)c1ccccc1)c1ccccc1` (stereo not drawn), the fluorescence ratio to DMSO was inactive: 98%.

For the compound `Cc1ccccc1OP(=O)(Nc1ccccn1)Oc1ccccc1C`, the fluorescence ratio to DMSO was inactive: 96%.
